Reference: patent publication US12576060B2, “Water soluble 3-O-acetyl-11-keto-β-boswellic acid and metal ion compositions, process for their preparation and uses thereof” (LAILA NUTRA PRIVATE LIMITED, priority 2020, dated 2026)

Test: Solubility in water of potassium or sodium salts of AKBA
Type: physicochemical
Conditions: volume of water needed to completely dissolve 1.0 g; room temperature (RT)
Description: These potassium or sodium salts of AKBA were evaluated for their solubility in water and determined their pH.

Substance	Solubility of 1.0 g of product in water
potassium salt or complex or chelate of 3-O-acetyl-11-keto-β-boswellic acid [LN05]	140 mL
sodium salt of 3-O-acetyl-11-keto-β-boswellic acid [LN08]	50 mL
